From ChEMBL document CHEMBL1137608, “Design of a potent reactivator of tabun-inhibited acetylcholinesterase--synthesis and evaluation of (E)-1-(4-carbamoylpyridinium)-4-(4-hydroxyiminomethylpyridinium)-but-2-ene dibromide (K203)” (2007)

Assays:
[1] = target: T1, Acetylcholinesterase (Rattus norvegicus) (UniProt P37136); test: Reactivation activity of tabun-inhibited AChE in rat brain at 100 uM after 30 mins; parameters: scale not given: the % may be the effect or the level left
T1 sequence (whole entry): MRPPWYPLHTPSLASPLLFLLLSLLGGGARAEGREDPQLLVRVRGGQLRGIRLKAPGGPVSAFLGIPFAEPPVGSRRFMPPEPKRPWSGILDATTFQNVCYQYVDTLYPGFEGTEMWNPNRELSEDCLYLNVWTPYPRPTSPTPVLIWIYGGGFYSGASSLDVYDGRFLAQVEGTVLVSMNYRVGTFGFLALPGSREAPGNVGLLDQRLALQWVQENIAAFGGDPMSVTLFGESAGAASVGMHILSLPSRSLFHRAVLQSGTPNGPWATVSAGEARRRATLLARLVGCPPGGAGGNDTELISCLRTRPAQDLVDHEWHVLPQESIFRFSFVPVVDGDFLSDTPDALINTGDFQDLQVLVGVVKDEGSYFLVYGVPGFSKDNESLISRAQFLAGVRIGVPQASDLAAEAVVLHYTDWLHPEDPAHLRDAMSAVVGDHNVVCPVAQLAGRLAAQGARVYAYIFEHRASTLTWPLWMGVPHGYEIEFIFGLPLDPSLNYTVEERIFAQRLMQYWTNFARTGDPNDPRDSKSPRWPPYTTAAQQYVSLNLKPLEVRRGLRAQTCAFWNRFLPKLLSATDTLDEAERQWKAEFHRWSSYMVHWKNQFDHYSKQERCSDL

[2] = target: T1, Acetylcholinesterase (Rattus norvegicus); test: Reactivation activity of tabun-inhibited AChE in rat brain at 10 uM after 30 mins; parameters: scale not given: the % may be the effect or the level left
[3] = target: T1, Acetylcholinesterase (Rattus norvegicus); test: Binding affinity to tabun-inhibited AChE
[4] = target: T1, Acetylcholinesterase (Rattus norvegicus); test: Reactivation activity of tabun-inhibited AChE in rat brain at 1 mM after 30 mins; parameters: scale not given: the % may be the effect or the level left

| SMILES | Activity [1] [%] | Activity [2] [%] | KR [3] [µM] | Activity [4] [%] |
| --- | --- | --- | --- | --- |
| NC(=O)c1cc[n+](CCC[n+]2ccc(/C=N/O)cc2)cc1 | 11 | 1 | 54 | 11 |
| O/N=C\c1cc[n+](C/C=C/C[n+]2ccc(/C=N/O)cc2)cc1 |  |  | 19 |  |
| C[n+]1ccccc1C=NO |  |  | 575 |  |
| NC(=O)c1cc[n+](COC[n+]2ccccc2/C=N/O)cc1 | 6 |  | 6 |  |
| O/N=C/c1cc[n+](CCC[n+]2ccc(/C=N/O)cc2)cc1 |  |  | 460 |  |
| NC(=O)c1cc[n+](C/C=C/C[n+]2ccc(/C=N/O)cc2)cc1 |  |  | 6 |  |
| O/N=C/c1cc[n+](CCCC[n+]2ccc(/C=N/O)cc2)cc1 | 38 | 15 | 29 | 46 |
